Data taken from US8618275B2, “Efficient cell culture system for hepatitis C virus genotype 5A” (Hvidovre Hospital, priority 2007, dated 2013).

Tested on: SA13/JFH1C3405G-A3696G (5a/JFH1) infected Huh7.5 cells
Assay: Treatment of 5a/JFH1 infected cell cultures with interferon-α
Format: cell-based, hepatitis C virus
Settings: 500 IU/mL

IFN-α: antiviral drug IFN-α 2b, constituent of the combination therapy against HCV
percent infected cells (start at 90% infected cells, within 10 days): below 5% | percent infected cells (within the first 3 days of treatment): decreased dramatically
